Test system: human erythrocytes
Test: Haemolysis assay
Details: human erythrocytes 4% (v/v) in PBS; 8, 32 and 128 µM; 30 min, 37 °C; absorbance 540 nm; duplicates; result in words
Experimental: The haemolysis assay is widely used to assess the therapeutic potential of a given AMP. AMPs that cause ruptured RBCs at their MICs naturally have low therapeutic potential.
Fresh human blood samples were obtained from healthy donors with the approval of the institutional medical ethics committee. Erythrocytes were isolated from heparinized human blood by centrifugation at 2000g for 5 min after washing three times with PBS at 4 °C. After removing the supernatant, the cell pellet was resuspended in 2 mL of PBS, and cells were diluted at 4% (v/v) for the haemolysis experiment. […] Samples were centrifuged at 2000g for 5 min, and the absorbance of supernatants was measured at 540 nm using a polarstar omega plate reader from BMG Labtech. Erythrocytes lysed with 0.1% triton X-100 and 50 µg/mL melittin were used as positive controls. Percentage haemolysis was calculated using the formula: Haemolysis (%) = (ASAMPLE − ANG)/(APC − ANG) × 100[ASAMPLE = Absorbance recorded for samples at 540 nm, ANG = Absorbance recorded for untreated (negative control) erythrocytes at 540 nm, APC = Absorbance recorded for Melittin treated (positive control) erythrocytes at 540 nm]. One-way ANOVA was used to establish the presence of significant groups, and Tukey’s test was subsequently utilized to conduct the comparison of means.

For “Acetyl-cysteine-2-acetyl boronic acid [AcCys-2-APBA]”, which haemolysis is on record?
Its haemolysis is “neither hemolytic nor cytotoxic”.

— publication PMC10965847, “Expanding a peptide-covalent probe hybrid for PET imaging of S. aureus driven focal infections” (EJNMMI Radiopharmacy and Chemistry, 2024)
